Experimental data published in BindingDB's records for doi:10.7270/Q2JQ0ZDS (Sanford-Burnham Center for Chemical Genomics, 2009).

Sequences of proteins named here, by UniProt entry; tags and fusion partners are left off. A change or cut given only in a name is not applied to a line headed by its entry.
UniProt P09923: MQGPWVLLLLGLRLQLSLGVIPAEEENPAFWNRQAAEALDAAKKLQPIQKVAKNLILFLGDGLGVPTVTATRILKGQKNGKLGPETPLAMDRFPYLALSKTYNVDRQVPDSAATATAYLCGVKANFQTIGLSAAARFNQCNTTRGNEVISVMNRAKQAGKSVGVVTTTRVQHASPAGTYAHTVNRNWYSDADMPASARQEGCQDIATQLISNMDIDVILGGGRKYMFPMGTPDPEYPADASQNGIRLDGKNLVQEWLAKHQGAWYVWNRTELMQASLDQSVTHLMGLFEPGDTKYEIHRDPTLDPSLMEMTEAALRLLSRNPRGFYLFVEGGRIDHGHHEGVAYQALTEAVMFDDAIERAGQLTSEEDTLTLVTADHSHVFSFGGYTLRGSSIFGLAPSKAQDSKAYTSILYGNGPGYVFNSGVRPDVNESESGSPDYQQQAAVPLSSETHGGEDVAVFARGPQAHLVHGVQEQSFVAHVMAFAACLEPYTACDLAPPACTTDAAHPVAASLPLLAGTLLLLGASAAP

Target: Intestinal-type alkaline phosphatase (Homo sapiens, UniProt P09923)
Assay: inhibition of intestinal alkaline phosphatase – biochemical, luminescence, dose response (AID 1017)

IC50: 8.86 µM
Compound: O=C1c2ccccc2C(=O)N1c1nc(Cc2ccccc2)n[nH]1 [2-(5-benzyl-1H-1,2,4-triazol-3-yl)isoindole-1,3-dione]
